Measured values reported in US11579152B2, “Engineered hERG channel proteins, vesicles and methods of identifying small molecule pharmacological agents” (priority 2016, dated 2023).

Protein sequences, listed by entry. Tags and fused reporters are not part of them. Chains listed by the source or under a name are the forms on record and can include a tag or linker.
UniProt Q12809, with tags, fused parts or gaps DEL141-380/DEL871-1005: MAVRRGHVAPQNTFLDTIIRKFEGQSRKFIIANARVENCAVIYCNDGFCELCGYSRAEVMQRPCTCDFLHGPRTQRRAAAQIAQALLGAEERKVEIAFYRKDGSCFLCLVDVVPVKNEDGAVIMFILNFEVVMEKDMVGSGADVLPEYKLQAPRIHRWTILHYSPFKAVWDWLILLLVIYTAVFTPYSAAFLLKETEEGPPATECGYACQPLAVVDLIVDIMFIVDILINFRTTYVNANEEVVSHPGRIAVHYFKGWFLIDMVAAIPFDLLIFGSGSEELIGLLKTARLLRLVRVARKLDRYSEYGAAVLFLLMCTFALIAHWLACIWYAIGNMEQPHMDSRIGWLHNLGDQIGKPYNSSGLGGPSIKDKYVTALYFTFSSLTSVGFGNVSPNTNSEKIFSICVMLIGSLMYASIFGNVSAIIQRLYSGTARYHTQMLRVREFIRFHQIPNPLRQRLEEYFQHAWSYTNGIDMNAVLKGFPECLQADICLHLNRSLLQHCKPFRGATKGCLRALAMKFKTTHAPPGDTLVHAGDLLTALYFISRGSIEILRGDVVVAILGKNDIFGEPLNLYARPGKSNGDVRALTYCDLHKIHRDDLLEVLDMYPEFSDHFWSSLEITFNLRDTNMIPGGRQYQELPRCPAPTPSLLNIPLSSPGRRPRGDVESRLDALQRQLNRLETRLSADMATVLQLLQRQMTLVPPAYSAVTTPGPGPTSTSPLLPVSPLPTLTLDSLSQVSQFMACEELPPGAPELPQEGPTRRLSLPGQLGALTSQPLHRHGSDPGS

Experiments:
hERG = hERG (Homo sapiens, UniProt Q12809); details: read-out: IC50 patch; electrophysiology-determined values reported in the literature; cited from earlier work
hERG channel = hERG channel (Homo sapiens, UniProt Q12809, DEL141-380/DEL871-1005); assay: biochemical

Row | Structure (SMILES) | IC50 (hERG) [µM] | IC50 (hERG channel) [µM]
1 | CC(C)COCC(CN(Cc1ccccc1)c1ccccc1)N1CCCC1 (stereo not drawn) [Bepridil] | 0.023 to 0.099 | 0.595 ± 0.066
2 | OC(c1cc(C(F)(F)F)nc2c(C(F)(F)F)cccc12)C1CCCCN1 (stereo not drawn) [Mefloquine] | 2.6 to 5.6 | 2.97 ± 0.421
3 | CN1CCCCC1CCN1c2ccccc2Sc2ccc([S+](C)[O-])cc21 (stereo not drawn) [Mesoridazine] | 0.426 | 6.65 ± 1.39
